Values quoted from earlier work as cited in PMC8307404, “Crystal Structure-Guided Design of Bisubstrate Inhibitors and Photoluminescent Probes for Protein Kinases of the PIM Family” (Molecules, 2021).

Amino acid sequences for entries named in this document (tags omitted).
UniProt P11309, whole entry: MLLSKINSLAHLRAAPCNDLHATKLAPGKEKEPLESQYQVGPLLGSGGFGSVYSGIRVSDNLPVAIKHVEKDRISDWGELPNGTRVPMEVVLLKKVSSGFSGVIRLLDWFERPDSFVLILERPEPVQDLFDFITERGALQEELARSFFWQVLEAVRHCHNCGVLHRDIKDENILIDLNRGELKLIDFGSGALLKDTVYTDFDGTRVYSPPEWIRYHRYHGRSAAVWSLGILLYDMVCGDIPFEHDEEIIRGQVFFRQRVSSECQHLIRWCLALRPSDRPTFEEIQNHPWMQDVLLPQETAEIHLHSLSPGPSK

Target: Pimtide

Kd: 0.058 µM
Substance: PIM-1 (from UniProt P11309)
